Results taken from ChEMBL document CHEMBL4406853 (Eur J Med Chem, 2019).

Protein sequences, listed by entry. Tags and fused reporters are not part of them. Lines headed by an entry give the natural chain unless they say otherwise; changes in a name come on top.
UniProt P97266, whole entry: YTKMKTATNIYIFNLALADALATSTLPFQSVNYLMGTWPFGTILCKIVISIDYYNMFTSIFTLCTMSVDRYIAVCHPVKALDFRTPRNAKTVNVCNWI
UniProt P41144: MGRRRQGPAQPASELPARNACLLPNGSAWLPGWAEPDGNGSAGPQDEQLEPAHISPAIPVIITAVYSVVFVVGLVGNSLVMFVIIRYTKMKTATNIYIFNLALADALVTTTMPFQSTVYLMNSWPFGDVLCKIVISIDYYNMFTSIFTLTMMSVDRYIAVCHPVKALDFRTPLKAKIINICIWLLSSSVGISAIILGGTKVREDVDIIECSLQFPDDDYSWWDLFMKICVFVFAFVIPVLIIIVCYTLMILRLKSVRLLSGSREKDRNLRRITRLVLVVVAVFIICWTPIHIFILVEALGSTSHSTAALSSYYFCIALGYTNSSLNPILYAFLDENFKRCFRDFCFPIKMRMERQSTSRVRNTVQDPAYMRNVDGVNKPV

Experiments:
Type in all cases: cell membranes
Cavia porcellus = species: Cavia porcellus; test: Potency index, ratio of morphine Ki to compound Ki for delta opioid receptor in guinea pig brain membranes
[1] = target: Mu-type opioid receptor (Cavia porcellus) (UniProt P97266); test: Potency index, ratio of morphine Ki to compound Ki for mu opioid receptor in guinea pig brain membranes
[2] = target: Kappa-type opioid receptor (Cavia porcellus) (UniProt P41144); test: Potency index, ratio of morphine Ki to compound Ki for kappa opioid receptor in guinea pig brain membranes

Measured: Ratio Ki

CC[C@@H]1CN2CC[C@@]3(O)C(=Nc4cccc(OC)c43)[C@@H]2C[C@@H]1/C(=C\OC)C(=O)OC
10: Cavia porcellus | [1] | [2]
